The source of these data is ChEMBL document CHEMBL2321830 (J Med Chem, 2013).

In test [1] the target is T1, Aldo-keto reductase family 1 member C3 (Homo sapiens, UniProt P42330).
T1 sequence (P42330 whole entry): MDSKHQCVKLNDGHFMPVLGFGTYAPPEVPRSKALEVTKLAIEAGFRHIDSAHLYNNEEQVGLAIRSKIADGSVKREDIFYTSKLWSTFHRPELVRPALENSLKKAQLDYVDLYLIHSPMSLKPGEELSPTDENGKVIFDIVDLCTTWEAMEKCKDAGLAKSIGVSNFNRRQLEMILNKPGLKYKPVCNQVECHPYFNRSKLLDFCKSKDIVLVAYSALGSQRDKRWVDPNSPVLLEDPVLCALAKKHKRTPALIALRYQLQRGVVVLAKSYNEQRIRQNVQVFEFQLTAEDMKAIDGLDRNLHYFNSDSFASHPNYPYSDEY
Nature of the test: Inhibition of human recombinant AKR1C3-mediated NADP+-dependent oxidation of S-(+)-1,2,3,4-tetrahydro-1-naphthol.

In test [2] the target is T2, Aldo-keto reductase family 1 member C1 (Homo sapiens, UniProt Q04828).
T2 sequence (Q04828 whole entry): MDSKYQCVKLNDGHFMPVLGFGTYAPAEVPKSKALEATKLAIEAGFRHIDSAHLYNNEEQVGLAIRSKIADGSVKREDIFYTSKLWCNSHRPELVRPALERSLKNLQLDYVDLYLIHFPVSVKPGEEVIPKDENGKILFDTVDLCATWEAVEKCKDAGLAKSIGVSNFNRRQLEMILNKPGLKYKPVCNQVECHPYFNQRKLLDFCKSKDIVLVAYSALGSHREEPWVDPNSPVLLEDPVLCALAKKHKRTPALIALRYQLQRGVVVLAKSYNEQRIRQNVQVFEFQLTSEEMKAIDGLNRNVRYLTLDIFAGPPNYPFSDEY
Nature of the test: Inhibition of human recombinant AKR1C1-mediated NADP+-dependent oxidation of S-(+)-1,2,3,4-tetrahydro-1-naphthol.

As usually defined, the IC50 is the concentration that gives 50% inhibition. In the case of `COc1ccc2c(c1)c(C)c(CCC(=O)NS(=O)(=O)C(F)(F)F)n2C(=O)c1ccc(Cl)cc1`, the IC50 in test [1] was 1440 nM.
With `COc1ccc2c(c1)c(CCC(=O)O)c(C)n2C(=O)c1ccc(Cl)cc1`, the IC50 in test [2] was greater than 100000 nM.
